{"source": "patent US20060251664A1", "about": "“Method for the identification of epitopes related to immunogenicity in biopharmaceuticals” (priority 2005, published 2006)", "origin": "cited, not measured here", "settings": "after treatment (Deisenhammer et al., 2000; Bertolotto et al., 2004); cited from earlier work"}
{"substance": "Avonex: marketed IFN-β-1a, glycosylated, expressed in Chinese hamster ovary cells [reference compound]", "values": [{"measurement": "patients producing anti-IFN-β neutralizing antibodies", "result": "2-6%"}]}
